Test results as given in patent publication US11690911B2, “Combination of ATR kinase inhibitors and PD-1/PD-L1 inhibitors” (Bayer Pharma Aktiengesellschaft, priority 2017, dated 2023).

What was measured:
Settings in all cases: mouse, in vivo
[1] = test system: murine syngeneic lung carcinoma model KLN205; test: Anti-tumor activity in murine syngeneic lung carcinoma model KLN205
[2] = test system: murine syngeneic lymphoma model A20; test: Anti-tumor activity in murine syngeneic lymphoma model A20
[3] = test system: murine syngeneic colon carcinoma model MC38; test: Anti-tumor activity in murine syngeneic colon carcinoma model MC38 (study 2)
[4] = test system: murine syngeneic colon carcinoma model MC38; test: Anti-tumor activity in murine syngeneic colon carcinoma model MC38 (study 1)
[5] = test system: murine syngeneic colon carcinoma model CT26; test: Anti-tumor activity in murine syngeneic colon carcinoma model CT26

With C[C@@H]1COCCN1c1cc(-c2ccnn2C)c2ccnc(-c3ccn[nH]3)c2n1 [Compound A, 2-[(3R)-3-methylmorpholin-4-yl]-4-(1-methyl-1H-pyrazol-5-yl)-8-(1H-pyrazol-5-yl)-1,7-naphthyridine] the T/C [1] was 0.36*, the “anti-tumor efficacy (in words)” value [1] was “moderate anti-tumor efficacy” and the T/C [2] was 0.38. For the same compound, the “anti-tumor efficacy (in words)” value [2] was “moderate anti-tumor efficacy”, the T/C [3] was 0.46* and the “anti-tumor efficacy (in words)” value [3] was “moderate anti-tumor efficacy”. For the same compound, the T/C [4] was 0.10*, the “anti-tumor efficacy (in words)” value [4] was “good anti-tumor efficacy” and the T/C [5] was 0.50*. The “anti-tumor efficacy (in words)” value [5] was “moderate anti-tumor efficacy”.

Marks after values point to notes of the source that are not given here.
